From paper PMC6709783, “Structural Basis for Allosteric Ligand Recognition in the Human CC Chemokine Receptor 7” (Cell, 2019)

target: T1, human CCR7 (Homo sapiens, UniProt P32248, L145W); experiment: Thermofluor stability assay (thermal shift, CPM dye) with purified CCR7-L145W; format: binding; conditions: known chemokine receptor ligands tested for selectivity of the pocket, Figure 4B
T1 construct: enhanced green fluorescent protein (eGFP) (C); decahistidine-tag (His10) (C); made in house; host or cells: Sf9 insect cells (baculovirus)
T1 sequence (P32248 25-348 L145W): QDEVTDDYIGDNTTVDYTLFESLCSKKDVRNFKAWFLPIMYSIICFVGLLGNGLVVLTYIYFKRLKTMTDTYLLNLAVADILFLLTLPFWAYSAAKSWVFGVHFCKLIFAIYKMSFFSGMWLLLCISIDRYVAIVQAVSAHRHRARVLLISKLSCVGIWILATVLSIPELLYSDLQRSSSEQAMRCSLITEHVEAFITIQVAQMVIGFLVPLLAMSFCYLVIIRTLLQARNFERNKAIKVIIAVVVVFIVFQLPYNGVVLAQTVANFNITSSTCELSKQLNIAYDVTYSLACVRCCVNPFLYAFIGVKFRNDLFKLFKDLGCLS
Experimental: The plate was sealed and incubated for 30 min on ice. A 1:100 (v/v) working solution of the CPM (N-[4-(7-diethylamino-4-methyl-3-coumarinyl)phenyl]maleimide) dye stock (3 mg/mL in DMSO) was prepared and 5.14 μL of this solution were added to each well and mixed thoroughly. Out of each well, 3 × 20 μL were distributed into 0.1 mL Rotor-Gene Q tubes (QIAGEN). […] The gain set was determined at the beginning of the run. The melting temperature (Tm) was calculated from the point of inflection.
All liquid-handling steps were performed using a Bravo automated liquid handling platform and a 96LT head.
Melting temperatures (Tm) in the thermofluor stability assays were calculated and analyzed by automated scripts based on a fit to the Boltzmann equation. Details on significance levels and number of experiments are given in the corresponding figure legends.

| SMILES | thermo-stabilizing effect on CCR7 (in words) |
| --- | --- |
| Cc1c(F)cccc1NC(=O)Nc1ccc(Cl)c(S(=O)(=O)[C@H]2CCCNC2)c1O [Danirixin] | Neither did the CXCR2 antagonist Danirixin nor the CXCR1 and CXCR2 antagonist Reparixin stabilize CCR7 |
| CC(=O)C1=C(O)C(=O)N(c2ccc(Cl)cc2F)[C@@H]1C1CCCCC1 [CCR2-RA-[R]] | did not have a thermo-stabilizing effect on CCR7 |
| CC(C)(C)c1ccc(S(=O)(=O)Nc2ccc(Cl)cc2C(=O)c2cc[n+]([O-])cc2)cc1 [Vercirnon] | did not have a thermo-stabilizing effect on CCR7 |
